The values that follow are results of earlier work, collected in patent US9782396B2.

SMILES strings stand for the structures. Some compounds may have been tested in ways that are not shown here.

For this data set the following is noted: stated as basis of the washout period.

On to `CCC(=O)N(c1ccccc1)C1(COC)CCN(CCn2nnn(CC)c2=O)CC1`, for which the half-life of alfentanil entry is “approximately 1.5 hours”.
